## scFv variants of Ab-14 (heavy chain) against a SARS-CoV-2 spike peptide

The target is the same throughout: PDVDLGDISGINAS, from the HR2 region of SARS-CoV-2 spike.

Parent: Ab-14, a human scFv built as VH, three GGGGS repeats, VL. Only the CDRs of the heavy chain vary.
VH: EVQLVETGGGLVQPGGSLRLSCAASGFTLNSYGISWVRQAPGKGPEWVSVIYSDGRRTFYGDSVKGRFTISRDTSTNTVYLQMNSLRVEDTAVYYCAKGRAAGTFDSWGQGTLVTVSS
VL: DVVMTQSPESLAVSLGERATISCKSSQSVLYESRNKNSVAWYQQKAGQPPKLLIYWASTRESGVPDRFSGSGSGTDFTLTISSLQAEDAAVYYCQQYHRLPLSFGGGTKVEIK

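In library AAYL49, one, two or three CDR residues were substituted; doubles and triples were drawn at random. Affinity was read by AlphaSeq, a pooled yeast mating assay with surface-displayed partners. The frequency of each diploid, read from paired DNA barcodes, reflects how well the two displayed proteins bind. Each replicate has its own calibration line, from reference interactions of the BCL2 family. Mating was done three times.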

Positions count from residue 1 of the parent VH; S35E puts E in place of S. Scale: log10 of Kd in nM, estimated from mating counts; low values are strong binders. "ND" means that the variant was in the library but no mating with the target was seen in that replicate; the authors take this as a sign of poor binding, and no number exists. Empty control strains, which show no peptide, gave a signal in 15% of pairings with library AAYL49; the median was 4.06 and 95% of these signals were weaker than 2.83. No background was subtracted. Also given: how often the same scFv was detected with the empty control strains.

For S35E/Y52A/D106F, the assay gave ND, ND, ND (controls 0 of 9).
For D62L/D106C, the assay gave 2.94, 2.50, 3.56 (controls 2 of 9).
For V64Y/G99Y, the assay gave ND, 4.23, ND (controls 1 of 9).
For K65M/S107Y, the assay gave ND, ND, ND (controls 2 of 9).
For F27Q/Y60D/S107C, the assay gave ND, ND, ND (controls 1 of 9).
For D62I/A101E/F105W, the assay gave ND, ND, ND (controls 0 of 9).
For I34V/I51C/G55W, the assay gave ND, ND, ND (controls 0 of 9).
For I34R/T58N/G103T, the assay gave ND, 2.90, 4.08 (controls 6 of 9).
For N30D/D54K/R100P, the assay gave ND, ND, ND (controls 0 of 9).
For G26P/T58S/G103H, the assay gave ND, ND, ND (controls 0 of 9).
For N30A/V50W/F105E, the assay gave 5.06, 3.83, 4.19 (controls 5 of 9).
For F27C/L29H/Y60V, the assay gave ND, ND, ND (controls 0 of 9).
For G26S/F27T/T104L, the assay gave ND, ND, ND (controls 0 of 9).
For T28E/V50A/S107M, the assay gave ND, ND, ND (controls 0 of 9).
For Y52E/A102F/T104R, the assay gave ND, ND, ND (controls 2 of 9).
For S35I/I51W/F105W, the assay gave ND, ND, ND (controls 0 of 9).
For S35H/S53L/F105I, the assay gave ND, ND, 4.82 (controls 1 of 9).
For N30F/A102K/T104D, the assay gave ND, ND, ND (controls 0 of 9).
For G33M/Y52C/G61P, the assay gave ND, ND, ND (controls 0 of 9).
For L29C/R100F, the assay gave 3.48, 2.76, 3.59 (controls 3 of 9).
For V50S/D62N/F105L, the assay gave ND, ND, 4.69 (controls 1 of 9).
For F59E/G103L/T104A, the assay gave 0.53, 0.74, 0.62 (controls 2 of 9).
For L29Y/N30F/D106Y, the assay gave ND, 3.19, ND (controls 2 of 9).
For G26I/F27H/S63A, the assay gave 0.45, 1.02, 0.86 (controls 0 of 9).
For D54T/G99R/G103R, the assay gave ND, ND, ND (controls 0 of 9).
For I51Y/G99C/F105N, the assay gave ND, ND, ND (controls 0 of 9).
For Y52Q/D54T/A102F, the assay gave 3.62, ND, ND (controls 2 of 9).
For S31C/D54T/T58S, the assay gave ND, ND, ND (controls 1 of 9).
For S63P/K65E/G103C, the assay gave ND, ND, ND (controls 0 of 9).
For I34D/I51M/Y60M, the assay gave 3.49, 3.45, 4.69 (controls 1 of 9).
For V50I/S53F/G61F, the assay gave ND, ND, ND (controls 0 of 9).

Picked from the list: the 4 lowest averages where every replicate gave a value.

changes,"log10 Kd, replicates",empty controls
F59E/G103L/T104A,"0.53, 0.74, 0.62",2/9
G26I/F27H/S63A,"0.45, 1.02, 0.86",0/9
D62L/D106C,"2.94, 2.50, 3.56",2/9
L29C/R100F,"3.48, 2.76, 3.59",3/9

Parent in this assay: reference entry 0.65, copy in this library 4.11 (one replicate of three).

Reference: Engelhart et al. 2022, doi:10.1038/s41597-022-01779-4. File: FLAb, binding data.